Experimental data taken from patent US20140243292A1, “SUBSITUTED 2-(CHROMAN-6-YLOXYL)-THIAZOLES AND THEIR USE AS PHARMACEUTICALS” (Sanofi, priority 2011, published 2014).

Molecular target: T1, human NCX1 (Homo sapiens, UniProt P32418)
T1 construct: expressed in transfected cells
Assay: NCX1 inhibition, reverse mode (Ca2+ influx into cells), FLIPR Fluo-4 assay
Format: cell-based
Details: inhibition of NCX1 in reverse mode (Ca2+ influx into cells); read-out: NCX1rv IC50
From the text: The sodium/calcium exchanger NCX1 can transport calcium ions and sodium ions through the cell membrane. The transport is an exchange of Ca^2+ and Na^+ in two directions depending on membrane potential and ion gradients. At the first direction, named “forward mode” or “calcium export mode”, Ca^2+ is transported out of the cell and Na^+ is transported into the cell. At the other direction, named “reverse mode” or “calcium import mode”, the transport directions are vice versa. The effect of the compounds of the invention on NCX1 was determined in CHO cells stably expressing human NCX1 (gene symbol SLC8A1; cf. WO 2009/115238). The assay is based on the monitoring of intracellular Ca^2+ concentrations using a calcium-sensitive fluorescence dye which is detected by means of a FLIPR device (Fluorimetric Imaging Plate Reader, Molecular Devices).
The assay is based on the monitoring of intracellular Ca^2+ concentrations using the calcium-sensitive dye Fluo-4. CHO cells expressing NCX1 were loaded with the dye by means of the acetoxymethyl ester Fluo-4 AM (Invitrogen, F14202), which is cleaved intracellularly by esterase activity to yield the charged species of free Fluo-4. […] The intracellular elevation of Ca^2+ ions was detected by measuring the fluorescence of Fluo-4 at a wavelength of 520 nm by a FLIPR device. […]

- IC50: 500 nM
Substance: 2-((S)-2-Phenyl-chroman-6-yloxy)-thiazole-5-carboxylic acid (2-dimethylamino-ethyl)-amide [compound 279]
